The entries are a selection whose mix differs from that of the whole data set.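 The endpoint reported here, percent growth, reads 100 for growth as untreated, 0 for no net growth and -100 for all cells dead.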 Active and inactive are the calls of the source. The calls were made as follows: active = growth percent below 10; inactive = the rest.
What was measured:
Assay in all cases: NCI-60 one-dose screen, 48 h (100 = growth as untreated, 0 = no growth, -100 = all killed)
Details in all cases: 10 µM unless noted
NCI-H23 lung = tested on: NCI-H23 lung
NCI-H226 lung = tested on: NCI-H226 lung
NCI-H322M lung = tested on: NCI-H322M lung
HOP-62 NSCLC = tested on: HOP-62 NSCLC
NCI-H460 lung = tested on: NCI-H460 lung
HOP-92 NSCLC = tested on: HOP-92 NSCLC
NCI-H522 lung = tested on: NCI-H522 lung
A549/ATCC NSCLC = tested on: A549/ATCC NSCLC
786-0 renal = tested on: 786-0 renal
COLO 205 colon = tested on: COLO 205 colon
DU-145 prostate = tested on: DU-145 prostate
K-562 leukemia = tested on: K-562 leukemia
MALME-3M melanoma = tested on: MALME-3M melanoma
MDA-MB-231 breast = tested on: MDA-MB-231 breast
RXF 393 renal = tested on: RXF 393 renal
SF-268 CNS = tested on: SF-268 CNS
SF-539 CNS = tested on: SF-539 CNS
UACC-257 melanoma = tested on: UACC-257 melanoma
M14 melanoma = tested on: M14 melanoma
SF-295 CNS = tested on: SF-295 CNS

Measured: growth

NP(=O)(N(CCCl)CCCl)N1CC1 (configuration not stated)
inactive: NCI-H23 lung 96.3% | NCI-H226 lung 105% | NCI-H322M lung 99.2% | HOP-62 NSCLC 105% | NCI-H460 lung 110% | HOP-92 NSCLC 86.8% | NCI-H522 lung 76.4% | A549/ATCC NSCLC 98.1% | 786-0 renal 95.4% | COLO 205 colon 107% | DU-145 prostate 79.4% | K-562 leukemia 93% | MALME-3M melanoma 100% | MDA-MB-231 breast 114% | RXF 393 renal 108% | SF-268 CNS 93.8% | SF-539 CNS 100% | UACC-257 melanoma 104% | M14 melanoma 97.3%

OP1OCCO1
inactive: NCI-H23 lung 111% | NCI-H226 lung 92.4% | NCI-H322M lung 103% | HOP-62 NSCLC 98.5% | NCI-H460 lung 110% | HOP-92 NSCLC 68.5% | A549/ATCC NSCLC 104% | 786-0 renal 103% | COLO 205 colon 107% | DU-145 prostate 124% | K-562 leukemia 105% | MALME-3M melanoma 98.4% | MDA-MB-231 breast 101% | RXF 393 renal 106% | SF-268 CNS 111% | SF-295 CNS 120% | SF-539 CNS 108% | UACC-257 melanoma 102% | M14 melanoma 111%

CC(C)c1nc(Nc2ccccc2)n(P(=O)(N(C)C)N(C)C)n1
inactive: NCI-H23 lung 100% | NCI-H226 lung 94.4% | NCI-H322M lung 100% | HOP-62 NSCLC 105% | NCI-H460 lung 105% | HOP-92 NSCLC 83.7% | NCI-H522 lung 94.5% | A549/ATCC NSCLC 90.8% | 786-0 renal 101% | DU-145 prostate 116% | K-562 leukemia 121% | MALME-3M melanoma 109% | MDA-MB-231 breast 102% | RXF 393 renal 121% | SF-268 CNS 102% | SF-295 CNS 94.9% | SF-539 CNS 102% | UACC-257 melanoma 92.8% | M14 melanoma 108%

CCN(CC)[P+](c1ccc(OC)cc1OC)(N(CC)CC)N(CC)CC
inactive: NCI-H23 lung 30.1% | NCI-H226 lung 45.7% | NCI-H322M lung 102% | HOP-62 NSCLC 33.8% | NCI-H460 lung 21.6% | HOP-92 NSCLC 42% | A549/ATCC NSCLC 31.3% | 786-0 renal 68.6% | DU-145 prostate 32.8% | K-562 leukemia 15.5% | MALME-3M melanoma 59.9% | MDA-MB-231 breast 47.8% | SF-268 CNS 34.3% | SF-539 CNS 73.2% | M14 melanoma 43.3%
active: NCI-H522 lung 2.3% | COLO 205 colon -5.78% | SF-295 CNS 1.82% | UACC-257 melanoma -13.4%

ClCCNCc1ccccc1
inactive: NCI-H23 lung 102% | NCI-H226 lung 93.8% | NCI-H322M lung 99.4% | HOP-62 NSCLC 111% | NCI-H460 lung 102% | HOP-92 NSCLC 84.3% | NCI-H522 lung 110% | A549/ATCC NSCLC 109% | COLO 205 colon 115% | DU-145 prostate 108% | K-562 leukemia 97.2% | MALME-3M melanoma 106% | MDA-MB-231 breast 118% | RXF 393 renal 119% | SF-268 CNS 101% | SF-295 CNS 113% | SF-539 CNS 107% | UACC-257 melanoma 111% | M14 melanoma 104%

O=C(c1ccccc1)C(NCCCl)c1ccccc1 (configuration not stated)
inactive: NCI-H23 lung 96.8% | NCI-H226 lung 103% | NCI-H322M lung 88.3% | HOP-62 NSCLC 111% | NCI-H460 lung 104% | HOP-92 NSCLC 89.9% | NCI-H522 lung 66.1% | A549/ATCC NSCLC 97.7% | 786-0 renal 93.2% | DU-145 prostate 96.1% | K-562 leukemia 127% | MALME-3M melanoma 81.7% | MDA-MB-231 breast 107% | RXF 393 renal 131% | SF-268 CNS 89.1% | SF-295 CNS 98.7% | SF-539 CNS 96.6% | UACC-257 melanoma 104% | M14 melanoma 90%

CC[C@H](C)[C@@H]1NC(=O)/C(=C(\C)O)C1=O
inactive: NCI-H23 lung 99.2% | NCI-H226 lung 91.2% | NCI-H322M lung 86.7% | HOP-62 NSCLC 94.7% | NCI-H460 lung 97.8% | HOP-92 NSCLC 149% | NCI-H522 lung 127% | A549/ATCC NSCLC 96.3% | 786-0 renal 95.6% | COLO 205 colon 122% | DU-145 prostate 121% | K-562 leukemia 109% | MALME-3M melanoma 97.3% | MDA-MB-231 breast 101% | SF-268 CNS 99.2% | SF-295 CNS 95.2% | SF-539 CNS 96.8% | UACC-257 melanoma 107% | M14 melanoma 115%

ClP1Nc2cncnc2N1 (configuration not stated)
inactive: NCI-H23 lung 108% | NCI-H226 lung 110% | NCI-H322M lung 101% | HOP-62 NSCLC 109% | NCI-H460 lung 125% | HOP-92 NSCLC 102% | NCI-H522 lung 103% | 786-0 renal 110% | COLO 205 colon 121% | DU-145 prostate 113% | K-562 leukemia 98.2% | MALME-3M melanoma 106% | MDA-MB-231 breast 104% | RXF 393 renal 130% | SF-268 CNS 108% | SF-295 CNS 106% | SF-539 CNS 101% | UACC-257 melanoma 115% | M14 melanoma 110%
